Structures are written as SMILES. The source made the active and inactive calls. The calls are words filed in the database; no cut-off is given here.

Protein sequences, listed by entry. Tags and fused reporters are not part of them.
UniProt P15559, whole entry: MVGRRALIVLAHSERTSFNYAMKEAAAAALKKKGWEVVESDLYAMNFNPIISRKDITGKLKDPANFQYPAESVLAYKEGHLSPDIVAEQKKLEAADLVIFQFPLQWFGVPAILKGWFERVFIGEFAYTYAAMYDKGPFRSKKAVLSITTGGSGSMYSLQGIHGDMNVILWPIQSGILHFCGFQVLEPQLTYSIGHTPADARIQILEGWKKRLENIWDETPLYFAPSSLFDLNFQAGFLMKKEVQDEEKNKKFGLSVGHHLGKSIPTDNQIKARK

This experiment addresses NAD(P)H dehydrogenase [quinone] 1 (Homo sapiens) (UniProt P15559). The note with it: time < 1.0 min.
For `COc1cc2ncc(-c3ccc(N)cc3)nc2cc1OC`, the inhibition entry is “inactive”.

With `COc1cc(-c2ccc3nc(N)ncc3c2)cc(OC)c1OC`, the inhibition result is “inactive”.

`COc1cc(-c2cnc3nc(N)ccc3c2)cc(OC)c1OC`: the inhibition entry was “inactive”.

On to `COc1cc2ncc(-c3ccc(O)cc3)nc2cc1OC`, for which the inhibition entry is “inactive”.

For the compound `COc1cc(-c2cnc3cc(N)ccc3c2)cc(OC)c1OC`, the inhibition entry is “inactive”.

Turning to `COc1cc(-c2ccc3nc(N)oc3c2)cc(OC)c1OC`, the inhibition entry was “inactive”.

`COc1cc(-c2cnc3cc(N)ccc3n2)cc(OC)c1OC`: the inhibition entry was “inactive”.

With `COc1ccc2ncc(-c3ccc(N)cc3)nc2c1`, the inhibition entry was “inactive”.

Consider `COc1cc(-c2ccc3cc(N)ccc3c2)cc(OC)c1OC`, for which the inhibition result is “inactive”.

Consider `COc1cc(-c2ccc3nc(N)sc3c2)cc(OC)c1OC`, for which the inhibition entry was “inactive”.

On to `COc1cc(-c2ncc3cc(N)ccc3n2)cc(OC)c1OC`, for which the inhibition result is “inactive”.

These data come from ChEMBL document CHEMBL6115006, “Discovery of potent quinone oxidoreductase 2 inhibitors to overcome TRAIL resistance of non-small cell lung cancer” (Eur J Med Chem, 2025).
